Measurements: patent US9018209B2, “Compounds and methods for the treatment of viruses and cancer” (Yale University, priority 2005, dated 2015)

Test system: MT-2 human T-cells
Test: Cytotoxicity: inhibition of MT-2 cell growth
Format: cell-based
Excerpt: The preparation of the analogues 4a-h involved the reaction between 2-bromothiazole 1 with the corresponding 5-amino-2-R-phenol 2, followed by reaction with 4-bromo-2-methyl-2-butene in presence of Cs2CO3 as a base (Scheme 1; see Table 1 for antiviral activities (EC50) and cytotoxicities (IC50) of these compounds, as determined using human MT-2 cells infected with IIIB strain of HIV-1).
See, Ruiz-Caro, supra. and Lin, et al., Biochem. Pharmacol. 1994, 47, 171-174.

[1] = Table 1B, for 50% inhibition of MT-2 cell growth, triplicate samples

Row | Substance | CC50 [1] [µM] | CC50 (Table 2b, MT-2 cells) [µM]
1 | Ethyl 2-(4-methoxy-3-(3-methylbut-2-enyloxy)phenylamino)thiazole-4-carboxylate [Compound 9c] | 0.5 | –
2 | Ethyl 2-(4-methyl-3-(3-methylbut-2-enyloxy)phenylamino)thiazole-4-carboxylate [Compound 9b] | 9 | 9
